Amino acid sequences for entries named in this document (tags omitted). Residues count along the entry.
UniProt P06280, 32-429 limits assumed: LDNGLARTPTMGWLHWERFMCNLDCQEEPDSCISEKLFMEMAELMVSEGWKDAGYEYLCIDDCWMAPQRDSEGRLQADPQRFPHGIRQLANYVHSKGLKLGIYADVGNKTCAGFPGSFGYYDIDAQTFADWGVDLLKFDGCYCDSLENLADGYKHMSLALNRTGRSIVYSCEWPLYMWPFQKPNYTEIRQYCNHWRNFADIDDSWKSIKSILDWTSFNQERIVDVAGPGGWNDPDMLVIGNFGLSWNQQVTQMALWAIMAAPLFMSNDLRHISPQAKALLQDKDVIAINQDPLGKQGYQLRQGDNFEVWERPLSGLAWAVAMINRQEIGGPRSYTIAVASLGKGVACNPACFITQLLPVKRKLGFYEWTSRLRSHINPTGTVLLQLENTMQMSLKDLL

The list shows a part of the results, in another mix than the full data. Some salts and complexes are drawn in separate pieces, as the source files them; their charges need not balance. Activity calls are given as the source filed them. Calls come from the whole dose curve; as a rule, active = well fitted inhibition curve with a large enough effect; inconclusive = small, poorly fitted or top-dose-only effect, or effect the other way; inactive = flat fitted curve, though single readings scatter.
Each molecule was assayed against Alpha-galactosidase A (Homo sapiens) (UniProt P06280) (assay: qHTS Assay for Inhibitors and Activators of Human alpha-Galactosidase From Spleen Homogenate). Conditions: 4MU-alpha-Gal fluorescence, 40 min; at 80 µM (top of the series).
Excerpt: NIH Chemical Genomics Center [NCGC] NIH Molecular Libraries Probe Production Centers Network [MLPCN] MLPCN Grant: R03 MH084842-01 Assay Submitter (PI): Wei Zheng NCGC Assay Overview: Alpha-galactosidase is a homodimeric glycoprotein that hydrolyzes the terminal alpha-galactosyl moieties from glycolipids and glycoproteins. Deficiency of this enzyme results in Fabry Disease with progressive accumulation of globotriaosylceramide and other glycosphingolipids in vascular endothelial cells that causes renal failure, myocardial infarction and stroke, and premature death in patients. It has been reported that the improper folding and trafficking of alpha-galactosidase resulting from genetic mutations may account for a significant number of Fabry patients. […] We optimized this alpha-galactosidase assay in 1536-well plate format for identification of novel small molecule inhibitors or activators with structures other than the sugar analogs in order to develop new pharmacological chaperones. In particular, this assay is directed towards discovering compounds active in more natural setting, tissue homogenate, that may have been missed by screens of the purified enzyme under more stringent conditions.
NCGC Assay Protocol Summary: This is a fluorogenic enzyme assay with 4-methylumbelliferyl-alpha-D-galactopyranoside as the substrate and human spleen homogenate containing alpha-galactosidase as the enzyme preparation. Upon hydrolysis of this fluorogenic substrate, the resulting product, 4-methylumbelliferone (which excites at 365 nm and emits at 440 nm) can be detected by a fluorescence plate reader. Data were normalized to the controls for basal activity (without enzyme) and 100% activity (with enzyme). The AC50 values were determined from concentration-response data modeled with the standard Hill equation. Assay buffer: 50 mM citric acid (titrated with potassium phosphate to pH 5.0), 0.01% Tween-20 (pH 5.0 is an optimal condition for this enzyme assay) 1536-well assay protocol for the alpha-galactosidase from human spleen homogenate: (1) Add 2 ul/well spleen homogenate (1 ug) (2) Add 23 nL compounds in DMSO solution. The final titration was 0.5 nM to 58 uM. (3) Add 2 ul of substrate (1 mM final) (4) Incubate at 37C for 40 min (5) Add 2 ul stop solution (1M NaOH and 1M Glycine mixture, pH 10) (6) Detect the assay plate in a ViewLux plate reader (PerkinElmer) with Ex=365 nm and Em=440nm. Keywords: Alpha-galactosidase, Fabry Disease, pharmacological chaperone, chaperone therapy, high throughput screening, alpha- galactosidase inhibitor, MLSMR, MLSCN, NIH Roadmap, qHTS and NCGC
For `COc1ccc(C(=O)NCC2(N3CCCCC3)CCCCC2)c(OC)c1OC`, the activity change, negative = inhibition was inactive: 3.39%. For `O=C(NCC1(N2CCOCC2)CCCCC1)c1cc2ccccc2o1`, the activity change, negative = inhibition was inactive: -12.3%. With `CCOC(=O)N1CCC(Nc2ccc(OC)cc2)CC1` the activity change, negative = inhibition was inactive: -6.27%. `N#CC1(Nc2ccccc2)CCN(Cc2ccccc2)CC1` was tested, and the activity change, negative = inhibition was inactive: -25.6%. For `O=C(OC1CN2CCC1CC2)C1c2ccccc2Oc2ccccc21` (stereo unspecified), the activity change, negative = inhibition was inactive: 5.33%. With `CCOc1ccc(C)cc1CN(CCCl)CCCl` the activity change, negative = inhibition was inactive: -3.62%. For `COc1ccc(NC2CCN(CCc3ccccc3)CC2)c(OC)c1`, the activity change, negative = inhibition was inactive: -8.37%. In the case of `Cc1ccc(OCC(C)C)c(CN(CCCl)CCCl)c1`, the activity change, negative = inhibition is reported as inactive: -0.173%. With `O=C(NCC1(N2CCCCC2)CCCCC1)c1cccc([N+](=O)[O-])c1` the activity change, negative = inhibition was inactive: -7.22%. With `N#CC1(Nc2ccccc2)CCN(CCc2ccccc2)CC1` the activity change, negative = inhibition was inactive: 0.232%. `O=[N+]([O-])c1cc([N+](=O)[O-])c(NCC2CCS(=O)(=O)C2)c([N+](=O)[O-])c1` (stereo unspecified) was tested, and the activity change, negative = inhibition was inactive: 0.947%. With `CN1CCN(CCOC(=O)C(O)(c2ccccc2)c2ccccc2)CC1` the activity change, negative = inhibition was inactive: 3.52%. For `COc1ccc(NC2CCN(C(=O)OC(C)(C)C)CC2)cc1`, the activity change, negative = inhibition was inactive: -8.81%. In the case of `O=C(NCC1(N2CCOCC2)CCCCC1)c1cc(=O)[nH]c2ccccc12`, the activity change, negative = inhibition is reported as inactive: -3.21%. For `CN(C)c1cccc(C(=O)NCC2(N3CCCCC3)CCCCC2)c1`, the activity change, negative = inhibition was inactive: -13.3%. With `COc1ccc(CN(CCCl)CCCl)cc1Cl` the activity change, negative = inhibition was inactive: 2.5%. `CC(C)c1ccc(NC2CCN(C(=O)OC(C)(C)C)CC2)cc1` was tested, and the activity change, negative = inhibition was inactive: 6.79%. With `CCOP(=O)(Cl)Cl` the activity change, negative = inhibition was inactive: 0.602%. For `COc1ccc2c(c1O)-c1c(O)c(OC)cc3c1[C@H](C2)[N+](C)(C)CC3.O=[N+]([O-])c1cc([N+](=O)[O-])c([O-])c([N+](=O)[O-])c1[O-]`, the activity change, negative = inhibition was inactive: 1.51%. With `O=C(OC1CN2CCC1CC2)c1ccc([N+](=O)[O-])cc1` (stereo unspecified) the activity change, negative = inhibition was inactive: -3.38%. With `COc1ccc(C(=O)NCC2(N3CCOCC3)CCCCC2)cc1OC` the activity change, negative = inhibition was inactive: 0.953%. In the case of `N/C(=N\O)c1c(N)no[n+]1[O-]`, the activity change, negative = inhibition is reported as inactive: 2.89%. With `O=C(O)c1cccc(Nc2c([N+](=O)[O-])cc([N+](=O)[O-])cc2[N+](=O)[O-])c1` the activity change, negative = inhibition was inactive: -4.56%. For `O=C(OC1CN2CCC1CC2)C1c2ccccc2C=Cc2ccccc21` (stereo unspecified), the activity change, negative = inhibition was inactive: 4.77%. For `N#Cc1ccc(C(=O)NCC2(N3CCCCC3)CCCCC2)cc1`, the activity change, negative = inhibition was inactive: -5.69%. For `CCOC(=O)C(CC)C1=NC(C)(C)Cc2ccccc21.O=[N+]([O-])c1cc([N+](=O)[O-])c(O)c([N+](=O)[O-])c1` (stereo unspecified), the activity change, negative = inhibition was inactive: 2.2%. `c1ccc(CN2CCC(Nc3ccccc3)CC2)cc1` was tested, and the activity change, negative = inhibition was inactive: -7.91%. With `ClCCOP(OCCCl)OCCCl` the activity change, negative = inhibition was inactive: -4.86%. `Fc1ccccc1NC1CCN(Cc2ccccc2)CC1` was tested, and the activity change, negative = inhibition was inactive: -0.957%. In the case of `CCN1CCC(Nc2cccc(F)c2)CC1`, the activity change, negative = inhibition is reported as inactive: 12.5%. In the case of `CN(C)c1ccc(C(=O)NCC2(N3CCCCC3)CCCCC2)cc1`, the activity change, negative = inhibition is reported as inactive: 6.56%. In the case of `CCOc1ncccc1C(=O)NCC1(N2CCOCC2)CCCCC1`, the activity change, negative = inhibition is reported as inactive: -8.4%. In the case of `CC(C)(C)OC(=O)N1CCC(Nc2ccccc2)CC1`, the activity change, negative = inhibition is reported as inactive: -5.21%. `CCC(CO)(C(=O)OC1CN2CCC1CC2)c1ccccc1` (stereo unspecified) was tested, and the activity change, negative = inhibition was inactive: -9.76%. For `COc1cc(OC)cc(C(=O)NCC2(N3CCOCC3)CCCCC2)c1`, the activity change, negative = inhibition was inactive: -5.48%. With `CCCOc1ccc(C)cc1CN(CCCl)CCCl` the activity change, negative = inhibition was inactive: 5.2%.

From PubChem BioAssay AID2107 (National Center for Advancing Translational Sciences (NCATS), 2009)
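Note: 0% = enzyme with vehicle and -100% = no enzyme basal signal.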
